# Experimental data published in patent publication EP1242012B1, “IMPROVED TRANSDERMAL CONTRACEPTIVE DELIVERY SYSTEM AND PROCESS” (priority 1999, dated 2001).
# “And” between values parts separate entries of the source, which are not always exact repeats. Identical values can stand only once.
# Test system: albino guinea pigs
# Assay: Buehler sensitization test (induction and challenge)
# [1] = individual guinea pig, 0.4 mL of 0.1 % DNCB in acetone, directly after removal, first figure of cell
# [2] = individual guinea pig, 0.4 mL of 0.1 % DNCB in acetone, directly after removal, second figure of cell
smiles,measurement,setting,value
"O=[N+]([O-])c1ccc(Cl)c([N+](=O)[O-])c1 [DNCB, dinitrochlorobenzene]","signs of erythema or edema, challenge phase","guinea pigs, challenge day 28, 6 hours exposure",exhibited signs of erythema and/or edema
same,"Erythema score, Induction Phase Week 1",[1],0/0
same,"Erythema score, Induction Phase Week 2",[1],0 and 0/0 and 1
same,"Edema score, Induction Phase Week 1",[2],0/0
same,"Edema score, Induction Phase Week 2",[2],2 and 0/0 and 1 and 0
same,"Edema score, Induction Phase Week 3",[2],2 and 1/1 and 1 and 3
same,"Erythema score, Week 5 Challenge Phase 24 hr","individual guinea pig, challenge 0.05% DNCB in acetone, 24 ± 2 hours after removal, first figure of cell",2 and 2/2 and 1
same,"Edema score, Week 5 Challenge Phase 24 hr","individual guinea pig, challenge 0.05% DNCB in acetone, 24 ± 2 hours after removal, second figure of cell",1 and 2/2 and 3 and 2
same,"Erythema score, Week 5 Challenge Phase 48hr","individual guinea pig, challenge 0.05% DNCB in acetone, 48 ± 2 hours after removal, first figure of cell",2 and 1/1 and 1
same,"Edema score, Week 5 Challenge Phase 48hr","individual guinea pig, challenge 0.05% DNCB in acetone, 48 ± 2 hours after removal, second figure of cell",0 and 1/1 and 2 and 1
same,animals with signs of erythema and edema following the second induction application,"positive control group, 5 guinea pigs",Two animals in the positive control group exhibited signs of erythema and edema
